## Binding of CDR-mutated scFvs to a peptide of the spike HR2 region

Binding partner: SARS-CoV-2 spike HR2 peptide, sequence PDVDLGDISGINAS.

Parent: Ab-95, a human scFv built as VH, a (GGGGS)3 linker, VL. Only the CDRs of the light chain vary.
VH: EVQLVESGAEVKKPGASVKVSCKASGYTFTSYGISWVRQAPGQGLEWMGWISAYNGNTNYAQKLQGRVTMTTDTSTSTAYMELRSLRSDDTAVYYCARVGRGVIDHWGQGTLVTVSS
VL: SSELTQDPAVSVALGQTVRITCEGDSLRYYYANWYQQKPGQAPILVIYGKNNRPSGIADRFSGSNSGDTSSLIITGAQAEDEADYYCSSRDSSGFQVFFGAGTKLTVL

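Phage display of a naive human antibody library on the peptide gave the parent. Variants in AAYL52 differ from the parent at up to three CDR positions; double and triple changes were sampled at random. The assay is AlphaSeq: two haploid yeast populations carry antibody and antigen on their surface. After mating in shaken culture at 30 °C for 16 h, diploids were selected and their barcode pairs sequenced. Read counts were normalised to the haploid input and turned into Kd by a linear fit to BCL2-family pairs of known affinity, for each replicate. There are three technical replicates.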

Substitutions are numbered in sequence along the VL above, starting at 1 (not Kabat).
Numbers give log10(Kd / nM), so 0 is 1 nM and 3 is 1 µM. Smaller is tighter.
Averages over replicates are reported, and they cover detected replicates only.
A pair that was not seen in any replicate is written "not detected"; this usually means weak binding, but a binder can also be missed.
Background: pairings of library AAYL52 with three empty control strains gave a value in 28% of cases (median 3.91, 5th percentile 2.90). Values in that range, when seen in few replicates, are hard to tell from nonspecific mating.

mean, log10 nM	seen in	changes
not detected	0 of 3	D25P/R28Y/V97D
2.75	3 of 3	E23Y/S88C/R90A
3.84	2 of 3	R53W/D91L/V97A
3.89	3 of 3	R28T/Y29W/S93V
4.20	2 of 3	S26V/R90A/S92V
4.06	2 of 3	N33W/S55P/S88V
1.25	3 of 3	Y29A/Y30K
2.00	3 of 3	E23H/D25H/Y31S
5.07	1 of 3	K50F/S55H/R90A
3.62	1 of 3	A32T/R53K/R90Q
3.85	3 of 3	D25S/G49R
not detected	0 of 3	S26G/V97F
not detected	0 of 3	Y29G/R90N/F95Y
3.62	1 of 3	E23C/K50C/D91G
1.88	3 of 3	Y31N/K50E/S89M
3.95	1 of 3	R28Y/G49W
2.83	3 of 3	R28P/S89K/S92D
1.53	3 of 3	Y30S/N52S/S55K
2.41	3 of 3	N52T/R90K
4.00	2 of 3	N52K/S88M/S89M
3.17	3 of 3	S26Q/K50N/N51Q
2.61	3 of 3	Y29K/Y30I/R53Y
3.03	1 of 3	G49F/V97Y/F98T
2.75	3 of 3	E23G/S55Q/F95V
1.23	3 of 3	Y30T/Y31W/S89C
not detected	0 of 3	N51I/S93A/G94Y
3.47	2 of 3	N33F/S55A/V97P
not detected	0 of 3	Y30I/A32K/R90E
5.32	1 of 3	G49W/G94I/Q96W
4.07	2 of 3	A32R/N52W/D91I
4.60	2 of 3	N33H/F95E
0.69	3 of 3	E23S/Y30A/A32V
3.39	1 of 3	K50M/N52W/S93L
5.06	2 of 3	S26I/Y29C/N51V
3.81	3 of 3	L27P/N33M/N52T
3.85	2 of 3	Y31Q/N33D/R53G
2.10	3 of 3	G24V/P54V/S89F
4.56	2 of 3	G49R/S55P/R90L
4.77	1 of 3	Y30D/G49D/Q96D
3.47	1 of 3	S26W/Y29C/R53E
not detected	0 of 3	S26T/R53D/F98A
4.14	1 of 3	A32P/G49R/R90V
5.66	1 of 3	Y29W/Y30F/F98W
not detected	0 of 3	G49H/S92Y/Q96W
4.27	2 of 3	S88A/Q96F/V97S
4.39	2 of 3	N33R/R53K/F98M
1.91	3 of 3	G24H/Y31H/N52M
3.14	2 of 3	Y29Q/A32F/G94R
3.04	1 of 3	G24T/A32W/Q96R
3.76	3 of 3	E23M/N52W/S55G
5.14	1 of 3	G24Q/P54E/S93A
2.90	3 of 3	R28D/P54M/S88L
2.34	3 of 3	K50Q/P54K
2.39	3 of 3	D25H/S55N
4.50	2 of 3	R28D/G49R/P54S
not detected	0 of 3	Y29F/N52E/S88Q
3.93	2 of 3	A32W/K50P/S92C
5.23	1 of 3	K50E/S88C/D91W

Repeated from above, the 6 best binders with a signal in all replicates:

changes,"mean, log10 nM",seen in
E23S/Y30A/A32V,0.69,3 of 3
Y30T/Y31W/S89C,1.23,3 of 3
Y29A/Y30K,1.25,3 of 3
Y30S/N52S/S55K,1.53,3 of 3
Y31N/K50E/S89M,1.88,3 of 3
G24H/Y31H/N52M,1.91,3 of 3

Values reported by Engelhart et al. 2022, doi:10.1038/s41597-022-01779-4 (FLAb copy).